Reference: patent US5294603A, “Pharmaceutical compositions containing didemnins” (The Board of Trustees of The University of Illinois, priority 1992, dated 1994)

Test system: L1210 murine leukemia cells
Settings: Table 9

Substance: N-(CH3 ONsu)didemnin A [N-(CH3 ONsu)-didemnin A (111)]
- Cytotoxicity L1210 IC50: 0.001 µg/mL

Substance: N-(D-Prolyl) didemnin A [N-(D-Pro)Didemnin A (101)]
- Cytotoxicity L1210 IC50: 0.06 µg/mL
